Measurements: ChEMBL document CHEMBL5705888, “Substrate specificity and inhibitors of LRRK2, a protein kinase mutated in Parkinson's disease” (Biochem J, 2009)

The chains behind the UniProt entries cited, without tags or fusion partners. Where a name states a change or a piece, a line headed by the entry shows the natural chain unless it says otherwise.
UniProt O75116: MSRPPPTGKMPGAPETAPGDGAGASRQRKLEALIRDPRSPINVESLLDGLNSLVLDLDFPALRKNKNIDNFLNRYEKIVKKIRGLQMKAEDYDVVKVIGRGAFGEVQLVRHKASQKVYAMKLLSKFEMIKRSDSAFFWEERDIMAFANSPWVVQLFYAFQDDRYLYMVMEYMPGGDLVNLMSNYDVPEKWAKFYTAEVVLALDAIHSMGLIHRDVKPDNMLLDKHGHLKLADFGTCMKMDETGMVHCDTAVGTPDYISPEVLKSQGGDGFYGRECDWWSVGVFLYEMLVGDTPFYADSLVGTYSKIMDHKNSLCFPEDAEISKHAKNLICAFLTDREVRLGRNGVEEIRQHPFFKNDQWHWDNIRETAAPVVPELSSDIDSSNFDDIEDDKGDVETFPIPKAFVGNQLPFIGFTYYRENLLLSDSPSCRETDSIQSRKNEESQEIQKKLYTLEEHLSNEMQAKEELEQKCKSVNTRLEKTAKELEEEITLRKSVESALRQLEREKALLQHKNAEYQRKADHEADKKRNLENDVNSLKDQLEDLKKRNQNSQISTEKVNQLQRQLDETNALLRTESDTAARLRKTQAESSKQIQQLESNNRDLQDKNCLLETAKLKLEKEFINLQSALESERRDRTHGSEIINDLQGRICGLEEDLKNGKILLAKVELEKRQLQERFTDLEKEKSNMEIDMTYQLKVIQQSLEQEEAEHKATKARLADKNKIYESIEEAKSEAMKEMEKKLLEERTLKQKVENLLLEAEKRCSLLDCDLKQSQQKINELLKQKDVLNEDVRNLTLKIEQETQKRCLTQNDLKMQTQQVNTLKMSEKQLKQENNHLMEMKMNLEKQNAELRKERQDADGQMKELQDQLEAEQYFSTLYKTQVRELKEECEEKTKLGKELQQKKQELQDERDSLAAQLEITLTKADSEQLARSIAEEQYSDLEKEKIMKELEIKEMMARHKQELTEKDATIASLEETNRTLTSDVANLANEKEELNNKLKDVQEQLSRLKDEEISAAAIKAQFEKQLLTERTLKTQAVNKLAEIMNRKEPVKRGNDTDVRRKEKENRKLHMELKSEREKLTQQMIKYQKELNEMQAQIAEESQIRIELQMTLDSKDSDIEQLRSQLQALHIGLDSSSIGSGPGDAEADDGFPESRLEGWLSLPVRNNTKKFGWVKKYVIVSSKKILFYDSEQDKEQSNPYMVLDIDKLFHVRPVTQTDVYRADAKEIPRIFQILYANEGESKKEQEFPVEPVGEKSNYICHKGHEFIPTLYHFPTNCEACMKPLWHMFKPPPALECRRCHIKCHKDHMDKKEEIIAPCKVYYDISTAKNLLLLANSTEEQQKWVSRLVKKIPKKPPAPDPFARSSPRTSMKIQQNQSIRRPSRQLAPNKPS

Target: Rho-associated protein kinase 2 (Homo sapiens, UniProt O75116)
Experiment: Inhibition of ROCK2 (unknown origin) assessed as fold change at 1 uM incubated for 30 mins in presence of [gamma-33P]ATP by multidrop micro reagent based assay relative to control

CC1=C(C(=O)Nc2cc3cn[nH]c3cc2F)C(c2ccc(C(F)(F)F)cc2)CC(=O)N1 (stereo unspecified)
fold change (FC): 20
